Sequences of proteins named here, by UniProt entry; tags and fusion partners are left off.
UniProt P50406, whole entry: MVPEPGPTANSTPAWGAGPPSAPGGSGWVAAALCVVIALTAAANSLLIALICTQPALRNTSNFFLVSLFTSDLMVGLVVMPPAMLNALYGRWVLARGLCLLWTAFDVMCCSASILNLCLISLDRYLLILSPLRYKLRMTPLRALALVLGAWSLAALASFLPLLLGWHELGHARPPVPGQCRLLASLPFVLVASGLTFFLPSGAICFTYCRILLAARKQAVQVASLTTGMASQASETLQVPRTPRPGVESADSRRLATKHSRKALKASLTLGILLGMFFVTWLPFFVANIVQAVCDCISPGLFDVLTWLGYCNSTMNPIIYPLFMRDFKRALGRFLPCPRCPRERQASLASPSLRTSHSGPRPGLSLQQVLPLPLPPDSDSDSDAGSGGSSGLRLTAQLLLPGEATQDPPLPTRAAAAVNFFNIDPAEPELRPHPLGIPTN

According to patent US7297705B2, “Azaindolylalkylamine derivatives as 5-hydroxytryptamine-6 ligands” (Wyeth, priority 2001, dated 2007):

What follows are molecules tested against human cloned 5-HT6 receptors (Homo sapiens, UniProt P50406) (assay: 5-HT6 binding affinity, [3H]-LSD displacement on membranes of Hela cells expressing human cloned 5-HT6 receptors). Settings: read-out: 5-HT6 Binding Ki; [3H]-LSD 3.0 nM, 120 min at room temperature, Ki=IC50/(1+L/KD).

Compound	Ki [nM]
NCCc1cn(S(=O)(=O)c2cc(Cl)cc(Cl)c2)c2ncccc12	16.3
NCCc1cn(S(=O)(=O)c2cc(Cl)ccc2Cl)c2ncccc12	72.7
NCCc1cn(S(=O)(=O)c2ccc(Cl)c(Cl)c2)c2ncccc12	20.3
CN(C)CCc1cn(S(=O)(=O)c2ccc(C(C)(C)C)cc2)c2ncccc12	60.3
NCCc1cn(S(=O)(=O)c2cccc(Cl)c2Cl)c2ncccc12	2.5
NCCc1cn(S(=O)(=O)c2cccc(Br)c2)c2ncccc12	5.6
